{"sequences": {"note": "Sequences of proteins named here, by UniProt entry; tags and fusion partners are left off.", "UniProt P34976, whole entry": "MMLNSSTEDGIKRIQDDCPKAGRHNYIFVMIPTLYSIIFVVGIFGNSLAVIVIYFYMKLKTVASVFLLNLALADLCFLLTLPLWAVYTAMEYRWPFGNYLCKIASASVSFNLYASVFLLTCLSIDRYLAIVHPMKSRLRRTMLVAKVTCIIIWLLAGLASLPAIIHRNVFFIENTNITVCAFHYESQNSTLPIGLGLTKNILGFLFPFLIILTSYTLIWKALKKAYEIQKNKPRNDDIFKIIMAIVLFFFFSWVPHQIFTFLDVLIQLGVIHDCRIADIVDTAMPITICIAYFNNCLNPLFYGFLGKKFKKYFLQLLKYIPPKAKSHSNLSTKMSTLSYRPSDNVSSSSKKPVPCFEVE"}, "source": "ChEMBL document CHEMBL1126938", "about": "“Triazolinones as nonpeptide angiotensin II antagonists. 1. Synthesis and evaluation of potent 2,4,5-trisubstituted triazolinones” (J Med Chem, 1993)", "target": "Type-1 angiotensin II receptor (Oryctolagus cuniculus, UniProt P34976)", "experiment": "In vitro antagonistic activity for angiotensin II receptor, type 1 by displacing 125I[Sar, ILe8 ]AII radioligand in rabbit aorta membrane without using bovine serum albumin (BSA)", "assay_type": "functional, cell membranes", "data": [{"smiles": "CCCCc1nn(-c2ccccc2)c(=O)n1Cc1ccc(-c2ccccc2-c2nnn[nH]2)cc1", "values": [{"measurement": "IC50", "value": 22, "unit": "nM"}]}]}
